Screening results: PubChem, Broad Institute
Rows were chosen to be rich in hits. Some 1.7% of all compounds tested hit in one or more screens of this group.
DYRK1A inh: rat Dyrk1A kinase inhibitors, primary screen, biochemical, single point, plate reader. Dual specificity tyrosine-phosphorylation-regulated kinase 1A (Rattus norvegicus), Q63470. ADP-Glo luminescence, NFATc1 peptide. inhibition, % at 12.5 µM. actives 0.43% (n = 310,000). AID 504441, 2011; in the data active = inhibition above about 50%;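 note: plate controls were vehicle with enzyme for no effect and no enzyme for full effect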
CDK5 inh: inhibitors of human CDK5/p35 kinase, primary screen, biochemical, single concentration; Cyclin-dependent kinase 5 (Homo sapiens) + Cyclin-dependent kinase 5 activator 1 (Homo …; Recombinant CDK5/p35, ADP-Glo luminescence, 60 min; inhibition, % at 10 µM; actives 0.01% (n = 330,000); AID 488839, 2010;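 active = highest replicate inhibition of at least 50% and at least 75% of replicates reaching 50%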;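 note: plate controls were DMSO neutral control for no effect and GW8510 at 10 µM for full effect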
Yeast UUG start: alters start codon recognition fidelity in yeast; S. cerevisiae UUG-firefly luciferase reporter, luminescence/redox ratio; activity score, % at 18.7 µM; hit rate 0.13% among 350,000;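 active = replicate mean at a twofold rise or more, about +100% in these data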;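 also: firefly luciferase made from a UUG start codon reports start codon fidelity; reporter light over untreated wells divided by growth signal over untreated wells; some hits fall short of that in this replicate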
CAL PDZ FP-1: CAL PDZ peptide-binding inhibitors, primary screen, biochemical, fluorescence polarization, Cer-tagged CAL PDZ, HTS; Golgi-associated PDZ and coiled-coil motif-containing protein (Homo sapiens), Q9HD26; purified CAL PDZ, TMR-peptide fluorescence polarization, 1 h; inhibition, % at 20 µM; actives 0.02% (n = 330,000);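 active = highest replicate inhibition of at least 40%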;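 note: plate controls were DMSO neutral control wells for no effect and unlabeled competitor peptide control wells for full effect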
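Material – purified CerCALP PDZ construct · Detection – FP readout, S and P plane fluorescence · Measure – percent inhibition from loss of millipolarization · Controls – unlabelled peptide for full inhibition, DMSO wells as neutral · Probe or stimulus – TMR-labelled reporter peptide T*-PRC34 bound in PDZ groove · Times – 1 h at RT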
CAL PDZ FP-2: untagged CAL PDZ binding inhibitors, primary screen, biochemical, fluorescence polarization, HTS. purified CAL PDZ, TMR-peptide fluorescence polarization, 1 h. inhibition, % at 24.9 µM. actives 0.92% (n = 300,000). AID 602252, 2012;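 active = mean inhibition of at least 30% with at least half of replicates also reaching 30%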;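 note: 0% = DMSO neutral control and 100% = excess unlabeled competitor peptide PRC23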
dFosB activator: activators of delta FosB homodimer, primary screen, biochemical, fluorescence polarization, TAMRA-CDK5 oligo, single point; Protein FosB (Mus musculus), P13346; purified delta FosB; percent of positive-control signal above neutral wells; activation, % at 25 µM; actives 0.99% (n = 340,000); AID 493131, 2011;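 active = mean activation above about 17%, with every replicate also reaching it, limit read from the data, passing the limit was not always enough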
* hit, by the source's call; . = no result given.

SMILES	DYRK1A inh	CDK5 inh	Yeast UUG start	CAL PDZ FP-1	CAL PDZ FP-2	dFosB activator
COc1ccc(CCNC(=O)C(=O)N/N=C/c2cccs2)cc1OC	-2	-2	-15	-1	78*	-4
CCCCCCCCCC(=O)N/N=C/c1ccc(C)s1	4	0	.	17	49*	-10
O=C(Oc1coc(CSc2ncccn2)cc1=O)c1ccccc1[N+](=O)[O-]	.	2	.	0	82*	9
CCCNC(=O)c1ccccc1NS(=O)(=O)c1ccc2c(c1)OCCO2	-3	-2	-3	-2	69*	-13
CCCCNC(=O)c1ccccc1NS(=O)(=O)c1ccc2c(c1)OCCO2	-1	1	-19	-1	-3	-5
CC(C)CCNC(=O)c1ccccc1NC(=O)C1=CSCCO1	0	-3	-10	-3	-2	-10
CCCNC(=O)c1ccccc1NC(=O)C1=CSCCO1	-5	-1	4	0	78*	4
O=C(c1ccc(NS(=O)(=O)c2cccc(F)c2)cc1)N1CCCCC1	-8	-1	1	-2	36*	-3
O=C(Nc1ccc(Br)cn1)c1ccc(COc2c(F)c(F)cc(F)c2F)o1	.	0	5	0	35*	9
Cc1ccnc(NC(=O)c2ccc(COc3c(F)c(F)cc(F)c3F)o2)c1	13	0	-19	-1	.	-3
Cc1cc(C)cc(NC(=O)[C@H](Cc2c[nH]c3ccccc23)NC(=O)[C@@H]2Cc3ccccc3CN2)c1	8	2	-1	0	1	-5
Cc1cccc(NC(=O)[C@H](Cc2c[nH]c3ccccc23)NC(=O)[C@@H]2Cc3ccccc3CN2)c1	-2	-1	0	0	-2	22*
CC(=O)N1[C@H](CO)[C@H]2c3ccccc3N(S(=O)(=O)c3ccc(F)cc3)C[C@H]21	.	.	-12	.	.	.
Cc1c(CN(C)C)c2c(n1Cc1ccccc1)C(=O)c1ccc(Br)cc1-2	-6	-2	4	-1	5	19*
Cc1noc(C)c1NC(=O)Nc1cccc2c1O[C@H](CN(C)Cc1ccc(-c3ccccc3)cc1)[C@@H](C)CN([C@H](C)CO)C2=O	.	.	15	.	.	.
O=C(NNC(=O)c1ccc[nH]1)Nc1cccc(C(F)(F)F)c1	5	0	.	-1	71*	-7
COCC#Cc1cnc2c(c1)C(=O)N([C@H](C)CO)C[C@@H](C)[C@H](CN(C)Cc1ccc(F)cc1)O2	.	.	-11	.	.	.
Cc1cc(C)cc(NC(=O)CC2Oc3ccc(C)cc3NC2=O)c1 (configuration not stated)	-3	-2	-3	0	4	32*
COc1ccc(NC(=O)N(C)C[C@@H]2Oc3ccc(NC(=O)CCC(F)(F)F)cc3C(=O)N([C@@H](C)CO)C[C@@H]2C)cc1	.	.	1	.	.	.
CCCN(CC(=O)Nc1cc(C)on1)CC(=O)Nc1ccc(F)c(F)c1F	1	1	-2	0	49*	-1
Cc1nnsc1C(=O)NC1CCCc2c1cnn2-c1ccc(C(C)(C)C)cc1 (configuration not stated)	-4	-2	-2	-1	60*	-8
O=C(COC(=O)CCCN1C(=O)c2ccccc2C1=O)Nc1ncc(Cl)cc1Cl	4	2	0	-1	40*	-6
CN(C)c1ccc(/C=[N+](\[O-])C2N(c3ccccc3)C(=S)SC2(C)C)cc1 (configuration not stated)	6	-7	-25	0	-4	-9
CN1C(=S)SC(C)(C)C1/[N+]([O-])=C/c1cccnc1 (configuration not stated)	5	1	0	.	123*	7
CO[C@H]1CN(C)C(=O)c2ccc(NC(C)=O)cc2OC[C@H](C)N(C(=O)c2ccncc2)C[C@H]1C	.	.	18	.	.	.

Exported as labelled records: 2 of the compounds above
CCCCCCCCCC(=O)N/N=C/c1ccc(C)s1
- DYRK1A inh: 4
- CDK5 inh: 0
- Yeast UUG start: .
- CAL PDZ FP-1: 17
- CAL PDZ FP-2: 49*
- dFosB activator: -10
O=C(Oc1coc(CSc2ncccn2)cc1=O)c1ccccc1[N+](=O)[O-]
- DYRK1A inh: .
- CDK5 inh: 2
- Yeast UUG start: .
- CAL PDZ FP-1: 0
- CAL PDZ FP-2: 82*
- dFosB activator: 9

Compounds shown so far containing two or more sulfur atoms, in the order listed:
SMILES	DYRK1A inh	CDK5 inh	Yeast UUG start	CAL PDZ FP-1	CAL PDZ FP-2	dFosB activator
CN(C)c1ccc(/C=[N+](\[O-])C2N(c3ccccc3)C(=S)SC2(C)C)cc1 (configuration not stated)	6	-7	-25	0	-4	-9
CN1C(=S)SC(C)(C)C1/[N+]([O-])=C/c1cccnc1 (configuration not stated)	5	1	0	.	123*	7
